According to patent US12168664B2, “Triazolopyrimidines, their preparation and use” (THE TRUSTEES OF COLUMBIA UNIVERSITY IN THE CITY OF NEW YORK, priority 2018, dated 2024):

Key:
RBP4-TTR interaction = RBP4-TTR interaction (Homo sapiens (Human), UniProt P02753); assay: HTRF (TR-FRET) assay for antagonists of retinol-induced RBP4-TTR interaction; type: biochemical; conditions: read-out: HTRF assay for antagonists of RBP4-TTR interaction - IC50; in the presence of 1 μM retinol
human RBP4 = human RBP4 (Homo sapiens (Human), UniProt P02753); assay: SPA binding assay for RBP4 (scintillation proximity, 3H-retinol displacement); conditions: read-out: SPA binding assay for RBP4 - IC50; 10 nM 3H-retinol, 50 nM biotinylated RBP4

Row | SMILES | IC50 (RBP4-TTR interaction) [µM] | IC50 (human RBP4) [µM]
1 | O=C(c1nc2ncc(Br)cn2n1)N1C[C@H]2C[C@@H](c3ccccc3OC(F)(F)F)C[C@H]2C1 | 0.604 | 0.0346
2 | O=C(c1nc2ncc(CCO)cn2n1)N1C[C@H]2C[C@@H](c3ccccc3OC(F)(F)F)C[C@H]2C1 | 0.45 | 0.0395
